Data on one compound can be found in patent US5536737A, “Compound having prolyl endopeptidase inhibitory activity and pharmaceutical use thereof” (Japan Tobacco Inc., priority 1992, dated 1996).

For the assay, the target named is T1, prolyl endopeptidase (Rattus norvegicus, UniProt O70196).
T1 construct: prolyl endopeptidase extracted from rat brain; from tissue; host or cells: rat brain
T1 sequence (O70196 1-710): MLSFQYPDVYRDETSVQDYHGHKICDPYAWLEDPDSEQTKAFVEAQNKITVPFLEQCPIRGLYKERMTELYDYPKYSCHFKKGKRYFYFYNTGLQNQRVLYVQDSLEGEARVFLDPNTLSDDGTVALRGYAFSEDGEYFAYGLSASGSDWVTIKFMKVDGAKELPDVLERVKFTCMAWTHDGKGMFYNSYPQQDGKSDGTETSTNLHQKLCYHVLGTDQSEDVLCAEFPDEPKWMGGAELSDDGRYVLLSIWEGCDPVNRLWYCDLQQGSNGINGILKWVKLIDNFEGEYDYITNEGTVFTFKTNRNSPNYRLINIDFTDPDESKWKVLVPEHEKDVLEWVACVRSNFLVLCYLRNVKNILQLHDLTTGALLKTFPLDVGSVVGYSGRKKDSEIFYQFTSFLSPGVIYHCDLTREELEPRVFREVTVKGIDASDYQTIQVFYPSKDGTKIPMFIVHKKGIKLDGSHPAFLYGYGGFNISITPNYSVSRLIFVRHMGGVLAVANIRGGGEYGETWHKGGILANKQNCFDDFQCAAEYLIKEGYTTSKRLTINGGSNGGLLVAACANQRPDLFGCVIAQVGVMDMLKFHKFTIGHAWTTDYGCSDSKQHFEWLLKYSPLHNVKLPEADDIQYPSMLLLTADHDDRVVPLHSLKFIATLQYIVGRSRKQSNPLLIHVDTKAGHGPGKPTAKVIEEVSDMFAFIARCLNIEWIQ
Briefly: Prolyl endopeptidase-inhibitory activity. To be noted: rat brain enzyme, pH 7.0, 30° C., 1 hour; read-out: IC50 (prolyl endopeptidase inhibition). Format: biochemical. The method, then:
Prolyl endopeptidase-inhibitory activity
A mixture of a 0.1M potassium-sodium phosphate buffer (pH 7.0, 2675 μl ), a solution of the compound of the present invention in a 0.1M potassium-sodium phosphate buffer (pH 7.0, 100 μl ) and a solution of prolyl endopeptidase extracted from rat brain in a 25 mM sodium phosphate buffer (100 μl ) [123 unit/1, pH 6.8, containing 1 mM dithiothreitol and 0.5 mM EDTA, prepared by the method described in J. Neurochem., 35, 527 (1980)] was preincubated at 30° C. for 30 minutes. Thereto was added a 0.2 mM solution of 7-(N-succinyl-glycyl-prolyl)-4methylcoumarinamide (Peptide Institute, INC.) in a 0.1M potassium-sodium phosphate buffer (pH 7.0, 125 μl), and the mixture was incubated at 30° C. for 1 hour. The reaction mixture was immersed in ice (0° C.) to terminate the reaction, and the fluorescence (a1) was determined ten minutes later (excitation at 370 nm and emission at 440 nm). Concurrently, an experiment wherein, in the above system, the prolyl endopeptidase solution was substituted for a 25 mM sodium phosphate buffer (pH 6.8, containing 1 mM dithiothreitol and 0.5 mM EDTA) and an experiment wherein the solution of the compound of the present invention was substituted for a 0.1M potassium-sodium phosphate buffer (pH 7.0) were conducted. Each fluorescence (a2 and a3) was determined [See Tanpakushitsu Kakusan Koso, 29, 127 (1984)]. […]

Broadly, the IC50 is the point on the concentration scale where inhibition reaches its midpoint. In the case of `O=C(CO)[C@@H]1CCCN1C(=O)[C@@H]1CCCN1C(=O)NCc1ccccc1` [Compound 2, (S)-2-[[(S)-2-(Hydroxyacetyl)-1-pyrrolidinyl]carbonyl]-N-(phenylmethyl)-1-pyrrolidinecarboxamide], the half-maximal inhibitory concentration (IC50) worked out at 0.1 nM.
